Where a chain is given by its changes, count along the chain named.
B1: ZalH4-9-A: EGFR antibody ZalH4 conjugated to toxin 9-A, average DAR n=5.94 (conjugate)
heavy: QVQLVESGGGVVQPGRSLRLSCAASGFTFSTYGMHWVRQAPGKGLEWVAVIWDDGSYKYYGDSVKGRFTISRDNSKNTLYLQMNSLRAEDTAVYYCARDGVTMVRGVMKDYFDYWGQGTLVTVSSASTKGPSVFPLAPSSKSTSGGTAALGCLVKDYFPEPVTVSWNSGALTSGVHTFPAVLQSSGLYSLSSVVTVPSSSLGTQTYICNVNHKPSNTKVDKKV[human IgG1 Fc not spelt out]
light: DIQLTQSPSSLSASVGDRVTITCRASQDISSALVWYQQKPGKAPKLLIYDASSLESGVPSRFSGSESGTDFTLTISSLQPEDFATYYCQQFNSYPLTFGGGTKVEIKRTVAAPSVFIFPPSDEQLKSGTASVVCLLNNFYPREAKVQWKVDNALQSGNSQESVTEQDSKDSTYSLSSTLTLSKADYEKHKVYACEVTHQGLSSPVTKSFNRGEC
B2: ChiF4-18: chimeric antibody of F4-18: murine VH/VL (SEQ ID NO: 10/11) with human constant regions (SEQ ID NO: 69/70) (antibody)
heavy: EVQLQQSGAELVRPGSSVKMSCKTSGYTFTSYGINWVKQRPGQGLEWIGYIYLGSDYTEYNEKFKGKATLTSDTTSSTAYMQLSSLTSEDSAIYFCARSAGSLFAYWGQGTLVTVSAASTKGPSVFPLAPSSKSTSGGTAALGCLVKDYFPEPVTVSWNSGALTSGVHTFPAVLQSSGLYSLSSVVTVPSSSLGTQTYICNVNHKPSNTKVDKKV[human IgG1 Fc not spelt out]
light: DIQLTQSPSSLSASLGERVSLTCRASQDIGITLNWLQQEPDGTIKRLIYATSSLDSGVPKRFSGSRSGSDYSLTISSLESEDFVDYYCLQYASSPYTFGGGTKLEIKRTVAAPSVFIFPPSDEQLKSGTASVVCLLNNFYPREAKVQWKVDNALQSGNSQESVTEQDSKDSTYSLSSTLTLSKADYEKHKVYACEVTHQGLSSPVTKSFNRGEC
B3: ChiM6: chimeric antibody of M6: murine VH/VL (SEQ ID NO: 6/7) with human constant regions (SEQ ID NO: 69/70) (antibody)
heavy: QVQLQQSGAELMKPGASVKLSCKATGYRFIPYWIEWIKERPGHGLEWIGEILPGTGRTNYNEKFKGKATFTADTSSNTAYMQLSSLTTEDSAIYYCARYGDDTSGGYYAVDYWGQGTSVTVSSASTKGPSVFPLAPSSKSTSGGTAALGCLVKDYFPEPVTVSWNSGALTSGVHTFPAVLQSSGLYSLSSVVTVPSSSLGTQTYICNVNHKPSNTKVDKKV[human IgG1 Fc not spelt out]
light: DIVMTQSSASLAMSLGQRATISCRASESVNILGTNLIHWYQQKPGQPPKLLIYHASNLETGVPARFSGSGSRTDFTLTIDPVEEDDVAIYYCLQSRKIPWTFGGGTKLEIKRTVAAPSVFIFPPSDEQLKSGTASVVCLLNNFYPREAKVQWKVDNALQSGNSQESVTEQDSKDSTYSLSSTLTLSKADYEKHKVYACEVTHQGLSSPVTKSFNRGEC
B4: M6-H1L1: humanized antibody of M6: huM6VH1 + huM6VL1 (antibody)
heavy: EVQLVQSGAEVKKPGASVKVSCKASGYTFTPYWIEWVRQAPGQGLEWMGEILPGTGRTNYNEKFKGRVTFTADTSTNTVYMELSSLRSEDTAVYYCARYGDDTSGGYYAVDYWGQGTTVTVSSASTKGPSVFPLAPSSKSTSGGTAALGCLVKDYFPEPVTVSWNSGALTSGVHTFPAVLQSSGLYSLSSVVTVPSSSLGTQTYICNVNHKPSNTKVDKKV[human IgG1 Fc not spelt out]
light: DIVMTQSPDSLAVSLGERATINCRASESVNILGTNLIHWYQQKPGQPPKLLIYHASNLETGVPDRFSGSGSRTDFTLTISSLQAEDVAVYYCLQSRKIPWTFGGGTKVEIKRTVAAPSVFIFPPSDEQLKSGTASVVCLLNNFYPREAKVQWKVDNALQSGNSQESVTEQDSKDSTYSLSSTLTLSKADYEKHKVYACEVTHQGLSSPVTKSFNRGEC
B5: F4-1-H2L2: humanized antibody of F4-1: huF4-1VH2 + huF4-1VL2 (antibody)
heavy: EVQLVQSGAEVKKPGASVKVSCKASGYTFTDNYINWVRQAPGQRLEYIGWIYPGSGNNKFNEKFKGRVTLTVDTSARTAYMELSSLRSEDTAVYYCARDYPFPSYHYGMDYWGQGTTVTVSSASTKGPSVFPLAPSSKSTSGGTAALGCLVKDYFPEPVTVSWNSGALTSGVHTFPAVLQSSGLYSLSSVVTVPSSSLGTQTYICNVNHKPSNTKVDKKV[human IgG1 Fc not spelt out]
light: DIQLTQSPSSLSASVGDRVTITCSASSSVSYIHWFQQKPGKAPKLWIYSTSNLASGVPSRFSGSGSGTDFTLTVSSLQPEDFATYYCQQRSSYPPTFGGGTKVEIKRTVAAPSVFIFPPSDEQLKSGTASVVCLLNNFYPREAKVQWKVDNALQSGNSQESVTEQDSKDSTYSLSSTLTLSKADYEKHKVYACEVTHQGLSSPVTKSFNRGEC
B6: F4-1-H1L4: humanized antibody of F4-1: huF4-1VH1 + huF4-1VL4 (antibody)
heavy: B5 heavy with I48M, L70I, R77S
light: B5 light with K41T, A42S, S59P, D69S
B7: ChiF4-1: chimeric antibody of F4-1: murine VH/VL (SEQ ID NO: 8/9) with human constant regions (SEQ ID NO: 69/70) (antibody)
heavy: QIQLQQSGPELVKPGASVKISCKASGYTFTDNYINWVKQRPGQGLEYIGWIYPGSGNNKFNEKFKGKATLTVDTSSRTAFMQLSSLTFEDSAVYFCARDYPFPSYHYGMDYWGQGTSVTVSSASTKGPSVFPLAPSSKSTSGGTAALGCLVKDYFPEPVTVSWNSGALTSGVHTFPAVLQSSGLYSLSSVVTVPSSSLGTQTYICNVNHKPSNTKVDKKV[human IgG1 Fc not spelt out]
light: QILLTQSPAIMSASPGERVTITCSASSSVSYIHWFQQKPGTSPKLWIYSTSNLASGVPPRFSGSGSGTSFSLTVSRMEAEDAATYYCQQRSSYPPTFGGGTKLEIKRTVAAPSVFIFPPSDEQLKSGTASVVCLLNNFYPREAKVQWKVDNALQSGNSQESVTEQDSKDSTYSLSSTLTLSKADYEKHKVYACEVTHQGLSSPVTKSFNRGEC
B8: F4-18-H1L1: humanized antibody of F4-18: huF4-18VH1 + huF4-18VL1 (antibody)
heavy: EVQLVQSGAEVKKPGASVKVSCKASGYTFTSYGINWVRQAPGQRLEWMGYIYLGSDYTEYNEKFKGRVTLTSDTSASTAYMELSSLRSEDTAVYYCARSAGSLFAYWGQGTLVTVSSASTKGPSVFPLAPSSKSTSGGTAALGCLVKDYFPEPVTVSWNSGALTSGVHTFPAVLQSSGLYSLSSVVTVPSSSLGTQTYICNVNHKPSNTKVDKKV[human IgG1 Fc not spelt out]
light: DIQMTQSPSSLSASVGDRVTITCRASQDIGITLNWYQQKPGKAPKRLIYATSSLDSGVPSRFSGSRSGTDYTLTISSLQPEDFATYYCLQYASSPYTFGGGTKVEIKRTVAAPSVFIFPPSDEQLKSGTASVVCLLNNFYPREAKVQWKVDNALQSGNSQESVTEQDSKDSTYSLSSTLTLSKADYEKHKVYACEVTHQGLSSPVTKSFNRGEC
B9: F4-18-H2L1: humanized antibody of F4-18: huF4-18VH2 + huF4-18VL1 (antibody)
heavy: B8 heavy with A40R, R44G, M48I
light: B8 light

Chains of the proteins cited; added tags and fusions are not shown. A line that says so, or that is headed by a name, gives the form on record, which may keep a tag or linker.
UniProt P15941, with tags, fused parts or gaps: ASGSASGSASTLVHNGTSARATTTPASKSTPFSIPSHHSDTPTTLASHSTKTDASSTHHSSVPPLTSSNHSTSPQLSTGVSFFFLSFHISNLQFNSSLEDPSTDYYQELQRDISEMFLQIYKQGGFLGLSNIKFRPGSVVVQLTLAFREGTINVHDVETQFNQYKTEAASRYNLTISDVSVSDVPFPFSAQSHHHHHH

What was measured:
[1] = tested on: human pancreatic acinar epithelial carcinoma cell HPAC tumor-bearing mice; assay: Efficacy of ADCs in in vivo HPAC CDX model; settings: 3mpk, D 1 D 9, intraperitoneal injection
[2] = tested on: human non-small cell lung cancer HCC827 tumor-bearing mice; assay: Efficacy of ADCs in in vivo HCC827 CDX model; settings: 3mpk, one dose, intraperitoneal injection
CHOK1-cyno-MUC1-C cells = assay: FACS-based determination of affinity of chimeric and humanized anti-MUC1-C antibodies; format: binding; design: key: “+” means that there was binding; “−” means that there was no binding
[3] = tested on: HCC827-human-MUC1-C cells; assay: as above; format: binding; settings: Table 17
Procedure: HCC827-human-MUC1-C cells (in-house constructed overexpression stably transfected cell strain), CHOK1-cyno-MUC1-C cells (in-house constructed overexpression stably transfected cell strain), and T47D cells (human ductal breast cancer cells) were separately digested and added to a 96-well plate at 1E5 cells/well. After the plate was centrifuged at 300 g for 5 min, the supernatant was discarded, and the cells were washed once with a PBS buffer containing 2% FBS. The antibodies were 5-fold diluted from a starting concentration of 20 μg/mL using a PBS buffer containing 2% FBS to obtain a total of 8 concentration gradients. The antibody samples were added at 100 μL/well, and the cells were resuspended and incubated at 4° C. for 1 h. After the plate was centrifuged at 300 g for 5 min, the supernatant was discarded, and the cells were washed twice with a PBS buffer containing 2% FBS. […] After the plate was centrifuged at 300 g for 5 min, the supernatant was discarded, and the cells were washed twice with a PBS buffer containing 2% FBS. The cells were resuspended in 100 μL of a PBS buffer containing 2% FBS and analyzed using an instrument. […] The experimental process was the same as that in Test Example 1 “FACS-Based Determination of Affinity of Chimeric Antibodies”. In addition, CHOK1-human-MUC1-C cells (in-house constructed overexpression stably transfected cell strain) were used for evaluation.

[4] = target: T1, human MUC1-C-L-his antigen (Homo sapiens, UniProt P15941); assay: Determination of affinity of anti-MUC1-C antibodies using Biacore; settings: Biacore 8K, antibody captured on Protein A chip, 1:1 binding model
T1 construct: made in house; host or cells: 293 cells (transient, pTT5 vector)
Procedure: • 1. Instrument: Biacore 8K, Cytiva • 2. Material: Protein A biosensor chip (Cat. #29127556, Cytiva) • 3.
The affinity of the antibodies of the present disclosure for the human MUC1-C-L-His antigen was determined using a Biacore 8K instrument.
Method: An antibody molecule was affinity-captured by a Protein A biosensor chip, and the antigen molecule, at a certain concentration, was then allowed to flow through the surface of the chip continuously for 180 s, followed by 600 s of natural dissociation. The reaction signals were detected in real time by the Biacore 8K instrument to obtain an association and dissociation curve. After the dissociation in each experimental cycle was complete, the biosensor chip was regenerated with 10 mM glycine-HCl (pH 1.5). Data fitting was performed using the Kinetics 1:1 binding model.

Row | Molecule | EC50 [3] [nM] | ka [4] [M⁻¹ s⁻¹] | kd [4] [s⁻¹] | further results
1 | B1 |  |  |  | Number of deaths per group ([1]; 8 animals per group): 8(0); Mean tumor volume D 0 ([1]; D 0 (day of grouping)): 174.14 mm^3; Number of deaths per group ([2]; 10 animals per group): 10(0); Mean tumor volume D 0 ([2]; D 0 (day of grouping)): 154.70 mm^3
2 | B2 | 0.946 |  |  | Qualitative determination (CHOK1-cyno-MUC1-C cells; Table 19-4): +
3 | B3 | 2.58 |  |  | Qualitative determination (CHOK1-cyno-MUC1-C cells; Table 19-2, Test 1): +; Qualitative determination (CHOK1-cyno-MUC1-C cells; Table 19-2, Test 2): +
4 | B4 |  | 309000 | 0.00359 | Qualitative determination (CHOK1-cyno-MUC1-C cells; Table 19-2, Test 1): +
5 | B5 |  | 288000 | 0.00176 | 
6 | B6 |  | 302000 | 0.00175 | 
7 | B7 | 0.429 |  |  | Qualitative determination (CHOK1-cyno-MUC1-C cells; Table 19-3): +
8 | B8 |  | 133000 | 0.00268 | 
9 | B9 |  | 123000 | 0.00224 | 

— patent US20260232830A1, “ANTIGEN BINDING MOLECULE SPECIFICALLY BINDING TO EGFR AND MUC1, DRUG CONJUGATE THEREOF, AND MEDICAL USE THEREOF” (Jiangsu Hengrui Pharmaceuticals Co., Ltd., priority 2023, published 2026)
